From ChEMBL document CHEMBL5725838, “Amino pyridine derivatives as phosphatidylinositol 3-kinase inhibitors” (2018)
pIC50: −log10 of the molar value.

Amino acid sequences for entries named in this document (tags omitted). A change or cut given only in a name is not applied to a line headed by its entry.
UniProt P42338: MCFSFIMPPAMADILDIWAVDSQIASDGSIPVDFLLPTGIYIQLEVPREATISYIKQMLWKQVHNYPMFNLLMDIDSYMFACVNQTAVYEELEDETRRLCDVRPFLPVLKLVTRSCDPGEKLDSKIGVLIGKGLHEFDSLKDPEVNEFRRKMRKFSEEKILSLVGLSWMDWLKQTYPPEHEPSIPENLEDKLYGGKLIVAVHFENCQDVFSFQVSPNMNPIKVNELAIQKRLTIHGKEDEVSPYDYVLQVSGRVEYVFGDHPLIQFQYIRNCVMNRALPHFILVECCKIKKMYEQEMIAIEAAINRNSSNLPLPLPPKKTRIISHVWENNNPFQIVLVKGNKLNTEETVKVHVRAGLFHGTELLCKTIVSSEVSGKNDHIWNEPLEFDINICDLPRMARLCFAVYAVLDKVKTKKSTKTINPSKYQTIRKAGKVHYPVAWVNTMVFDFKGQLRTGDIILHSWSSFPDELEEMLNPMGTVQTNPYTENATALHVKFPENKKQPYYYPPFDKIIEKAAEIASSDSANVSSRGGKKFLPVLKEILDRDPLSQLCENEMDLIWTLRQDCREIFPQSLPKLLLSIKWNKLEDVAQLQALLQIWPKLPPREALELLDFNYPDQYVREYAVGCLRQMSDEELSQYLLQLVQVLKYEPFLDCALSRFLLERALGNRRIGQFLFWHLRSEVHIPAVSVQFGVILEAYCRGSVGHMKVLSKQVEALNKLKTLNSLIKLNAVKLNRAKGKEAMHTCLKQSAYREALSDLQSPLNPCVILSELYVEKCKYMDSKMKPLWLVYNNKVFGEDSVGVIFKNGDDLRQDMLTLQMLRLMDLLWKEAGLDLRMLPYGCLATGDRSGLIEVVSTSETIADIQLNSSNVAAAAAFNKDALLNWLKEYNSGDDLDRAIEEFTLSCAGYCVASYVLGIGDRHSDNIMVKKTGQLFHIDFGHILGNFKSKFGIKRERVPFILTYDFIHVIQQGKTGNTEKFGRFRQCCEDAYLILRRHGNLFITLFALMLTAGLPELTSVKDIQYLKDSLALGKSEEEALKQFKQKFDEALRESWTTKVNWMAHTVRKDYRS

Target: Phosphatidylinositol 4,5-bisphosphate 3-kinase catalytic subunit beta isoform (Homo sapiens, UniProt P42338)

Cc1cc(-c2cc(-c3cc(S(=O)(=O)NO[C@@H]4CCOC4)ccc3C)cnc2N)on1
pIC50: 6.06
